In one data set the target is FGF-1 (Homo sapiens, UniProt P05230). The experiment in a line: SPR based solution affinity assay, growth factor binding (FGF-1). The note with it: heparin-coated sensorchip, HBS-EP buffer, 25° C.; read-out: Kd aFGF. The protocol:
(§1) Binding affinities of ligands for the growth factors FGF-1, FGF-2 and VEGF were measured using a surface plasmon resonance (SPR) based solution affinity assay. The principle of the assay is that heparin immobilised on a sensorchip surface distinguishes between free and bound growth factor in an equilibrated solution of the growth factor and a ligand. Upon injection of the solution, the free growth factor binds to the immobilised heparin, is detected as an increase in the SPR response and its concentration thus determined. A decrease in the free growth factor concentration as a function of the ligand concentration allows for the calculation of the dissociation constant, Kd. It is important to note that ligand binding to the growth factors can only be detected when the interaction involves the HS binding site, thus eliminating the chance of evaluating non-specific binding to other sites on the protein. […]
(§2) For the testing of growth factor binding activity, heparin-coated sensorchips were used. […] Ligands binding to FGF-1 and VEGF were measured in HBS-EP buffer (10 mM HEPES, pH 7.4, 150 mM NaCl, 3.0 mM EDTA and 0.005% (v/v) polysorbate 20), while binding to FGF-2 was measured in HBS-EP buffer containing 0.3 M NaCl.[5] […] For each assay mixture, 50-200 μL of solution was injected at 5-40 μL/min and the relative binding response measured. […]
(§3) [formula] and the binding equation[5] can be expressed as […]

By UniProt entry, the sequences of proteins in these tests, tags left out. Residues count along the entry.
UniProt P05230, whole entry, species assumed: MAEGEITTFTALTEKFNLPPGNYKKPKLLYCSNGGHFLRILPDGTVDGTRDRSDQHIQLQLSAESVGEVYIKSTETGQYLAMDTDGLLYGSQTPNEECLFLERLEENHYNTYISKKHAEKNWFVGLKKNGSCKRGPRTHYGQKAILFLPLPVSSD
UniProt P09038, 143-288, species assumed: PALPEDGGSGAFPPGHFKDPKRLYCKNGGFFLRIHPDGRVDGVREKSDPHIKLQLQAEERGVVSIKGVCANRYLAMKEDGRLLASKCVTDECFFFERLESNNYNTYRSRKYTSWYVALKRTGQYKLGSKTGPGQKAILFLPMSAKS
UniProt P15692, 27-191 isoform P15692-4, species assumed: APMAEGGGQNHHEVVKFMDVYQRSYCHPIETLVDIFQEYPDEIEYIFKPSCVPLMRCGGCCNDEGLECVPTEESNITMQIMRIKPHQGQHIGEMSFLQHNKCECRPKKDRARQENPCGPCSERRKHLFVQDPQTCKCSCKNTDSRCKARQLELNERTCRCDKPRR

The target of the next data set is FGF-2 (Homo sapiens, UniProt P09038). Description: SPR based solution affinity assay, growth factor binding (FGF-2). The note with it: heparin-coated sensorchip, HBS-EP buffer containing 0.3 M NaCl, 25° C.; read-out: Kd bFGF. As for the experimental part: as §1, §2, §3
The target in the next data set is VEGF (Homo sapiens, UniProt P15692). The experiment in a line: SPR based solution affinity assay, growth factor binding (VEGF). The note with it: heparin-coated sensorchip, HBS-EP buffer, 25° C. The protocol: as §1, §2, §3
In a further data set the target is T1, heparanase (Homo sapiens, UniProt Q9Y251).
T1 sequence (Q9Y251 158-543 limits assumed): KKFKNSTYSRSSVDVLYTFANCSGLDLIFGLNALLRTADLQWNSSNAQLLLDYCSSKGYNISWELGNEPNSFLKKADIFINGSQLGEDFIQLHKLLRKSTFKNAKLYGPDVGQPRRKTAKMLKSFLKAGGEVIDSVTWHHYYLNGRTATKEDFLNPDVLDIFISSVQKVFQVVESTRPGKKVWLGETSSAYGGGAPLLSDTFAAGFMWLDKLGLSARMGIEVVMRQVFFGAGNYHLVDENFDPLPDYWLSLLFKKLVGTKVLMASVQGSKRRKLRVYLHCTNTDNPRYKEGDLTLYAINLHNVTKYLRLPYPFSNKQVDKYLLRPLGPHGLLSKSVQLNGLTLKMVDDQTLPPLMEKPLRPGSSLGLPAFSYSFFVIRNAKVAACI
T1 sequence (Q9Y251 36-109 limits assumed): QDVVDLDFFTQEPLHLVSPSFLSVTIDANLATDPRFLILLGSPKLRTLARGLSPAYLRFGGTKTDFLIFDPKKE
The experiment in a line: Heparanase inhibition, Microcon ultrafiltration assay. Type of data set: biochemical. As to conditions: 3H labelled HS, pH 5.0, 22° C., 2.5 h. As for the experimental part:
The heparanase assays were performed using a Microcon ultrafiltration assay. The assays rely on the principle of physically separating heparan sulfate (HS) that has been digested by heparanase from native HS to determine heparanase activity. The assay uses ultrafiltration devices (Microcon YM-10) to separate the smaller heparanase-cleaved HS fragments from native HS.
A reaction was set up with a volume of 90 μL, • 40 mM acetate buffer (pH 5.0) • 0.1 mg/mL BSA • 90 ng heparanase • 2.5 μM ^3H labelled HS • various concentrations of inhibitors.
The reactions were set up with all components except the ^3H labelled HS and allowed to equilibrate for 10 min at 22° C. The assays were then initiated by adding the HS and immediately 20 μL was taken, mixed with 80 μL of 10 mM phosphate (pH 7.0) and the 100 μL transferred to a Microcon YM-10 concentrator which was then centrifuged at approximately 14000 g for 5 min. The solution that passed through the membrane (filtrate) was retained. This sample was considered the time=0 sample. […]
The time=0 filtrate and the three 2.5 h filtrate samples were counted for ^3H. […] All inhibition assays were run with a heparanase standard assay which was identical to the assay composition above except no inhibitor was present and the amount of heparanase inhibition in the other assays determined by comparison with this standard.

The conditions of data set [1]: rat, in vivo, iv, 2.5 mg/kg. As for the experimental part:
The polyol precursors for PG500, 501, 503, 504, 506 and PI-88 (2 mg of each) were desiccated under vacuum over P2O5 for 3 days. Into each vial was syringed 50 μL of a stock solution of 1.77 mg (2.0 mCi) of ^35SO3.pyridine complex and 2 mg SO3.Me3N in 300 μL of anhydrous DMF (Aldrich, redried over freshly ignited 3 A molecular sieves). A further 600 μL of anhydrous DMF was added to the SO3 vial and was distributed to each sample vial. The samples were heated to 60° for 66 hr. SO3.Me3N (14 mg in 300 μL anhydrous DMF) was added to each vessel and the resulting solutions were heated to 60° overnight. The vials were cooled to room temperature and stored at −80° C. awaiting purification.
Each sample was quenched by addition of Na2CO3 (sat. aqu. adjusted to pH 8-9), evaporated to dryness and subjected to SEC (Biogel P2, 2.6×90 cm, flow rate 30 mL/hr, 5 min/fraction). Fractions containing desired material were detected using a G-M counter and DMB test followed by CE.
Male Sprague Dawley rats (250-350 g) were used. […] The animals were carefully monitored during recovery (1-4 h).
All doses were administered as a bolus intravenous injection of 2.5 mg/kg in a dose volume of 2 mL/kg. The total amount of radioactivity administered to each rat was 0.5-10 μCi. […]

The Kd is the free concentration of one partner at which half of the binding sites on the other are occupied at equilibrium, for simple one-to-one binding. Broadly, the IC50 is the concentration that inhibits the measured activity by half. The low end stands for higher potency, the high end for lower potency. For PEG2000 Polysulfate [PG506], the Kd on FGF-1 was found to be 0.088 ± 0.017 nM; on FGF-2, 114 ± 13 nM; on VEGF, 3.5 ± 0.8 nM. This substance also displayed an IC50 at heparanase of 2120 ± 152 nM. In data set [1], the “t1/2* (apparent)” value is 0.59 ± 0.01^ h.
Turning to PEG5000 Polysulfate [PG504], the Kd at FGF-1 was found to be 0.361 ± 0.028 nM; at FGF-2, 150 ± 9 nM; at VEGF, 8.1 ± 0.6 nM. Moreover, the IC50 on heparanase amounted to 6030 ± 1050 nM. For the same substance, the “t1/2* (apparent)” value in data set [1] is reported as 2.81 ± 0.04 h.

The values above are taken from US8173606B2, “Sulfated oligosaccharide derivatives” (Progen Pharmaceuticals Limited, priority 2004, dated 2012).
